The text below walks through data of patent US6391870B2, “Pyrrolo [2,1-b][1,3]benzothiazepines with atypical antipsychotic activity” (Sigma-Tau Industrie Farmaceutiche Riunite S.p.A., priority 1998, dated 2002).

By UniProt entry, the sequences of proteins in these tests, tags left out.
UniProt P19020, whole entry: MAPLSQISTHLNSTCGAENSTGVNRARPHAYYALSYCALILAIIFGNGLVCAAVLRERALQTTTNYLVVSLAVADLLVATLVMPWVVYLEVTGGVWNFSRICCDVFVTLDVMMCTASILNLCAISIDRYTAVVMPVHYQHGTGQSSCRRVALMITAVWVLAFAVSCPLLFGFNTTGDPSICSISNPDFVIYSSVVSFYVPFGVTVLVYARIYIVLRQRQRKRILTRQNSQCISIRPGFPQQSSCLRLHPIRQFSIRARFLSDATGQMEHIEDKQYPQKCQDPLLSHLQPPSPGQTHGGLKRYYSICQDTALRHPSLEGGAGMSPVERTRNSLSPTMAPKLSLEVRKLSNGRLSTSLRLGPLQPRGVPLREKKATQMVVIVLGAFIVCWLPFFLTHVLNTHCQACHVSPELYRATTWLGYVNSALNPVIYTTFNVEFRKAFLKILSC
UniProt P14842, whole entry: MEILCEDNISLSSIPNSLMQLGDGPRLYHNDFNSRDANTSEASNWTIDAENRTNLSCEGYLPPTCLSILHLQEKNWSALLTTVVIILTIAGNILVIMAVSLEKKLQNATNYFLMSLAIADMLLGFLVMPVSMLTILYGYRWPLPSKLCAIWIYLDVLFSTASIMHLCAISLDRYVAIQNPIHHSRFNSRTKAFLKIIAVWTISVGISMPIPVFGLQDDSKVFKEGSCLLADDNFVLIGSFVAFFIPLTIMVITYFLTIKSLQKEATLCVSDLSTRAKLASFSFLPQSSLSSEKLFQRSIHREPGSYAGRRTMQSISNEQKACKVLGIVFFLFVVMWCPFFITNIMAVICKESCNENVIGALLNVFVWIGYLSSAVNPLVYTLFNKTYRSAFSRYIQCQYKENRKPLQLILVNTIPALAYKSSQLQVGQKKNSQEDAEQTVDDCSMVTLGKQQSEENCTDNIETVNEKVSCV

One assay addresses T1, DA-3 receptors (Rattus norvegicus, UniProt P19020).
T1 construct: olfactory tubercle for DA-3 receptors; from tissue; host or cells: rat olfactory tubercle membranes
Nature of the assay: [3H]-7-OH-DPAT binding to DA-3 receptors (rat olfactory tubercle). The settings on record: average ± standard error, read-out: D3 affinity Ki.

A further assay deals with 5-HT2A receptors (Rattus norvegicus, UniProt P14842). Briefly: [3H]Ketanserin binding to 5-HT2A receptors (rat cortex). The settings on record: for Log Y: from 5HT2, D2 and D1 affinities, classic Log Y>6.48, atypical Log Y<6.48 (Meltzer).

Usually Ki stands for the dissociation constant of the complex between target and ligand, obtained from inhibition or displacement.

As for `CN1CCN(C2Cn3cccc3Sc3ccccc32)CC1` (racemic) [(±)-3a, (±)-9-(4-methylpiperazin-1-yl)-9,10-dihydropyrrolo[2,1-b][1,3]benzothiazepine], the Ki at DA-3 receptors came out at 57 nM. As for `CN1CCN(C2Cn3cccc3Sc3ccc(F)cc32)CC1` (racemic) [ST1456, (±)-7-fluoro-9-(4-methylpiperazin-1-yl)-9,10-dihydropyrrolo[2,1-b][1,3]benzothiazepine], the Ki at DA-3 receptors was found to be 12.2 nM. Besides, the “Log Y” value at 5-HT2A receptors is 5.39. For the molecule `CN1CCN([C@@H]2Cc3ccccc3Sc3ccc(Cl)cc32)CC1` [R-(−)-Octoclothepin], on 5-HT2A receptors (5HT2A pKi), the Ki was 0.158 nM. The “Log Y” value on 5-HT2A receptors is given as 5.87.

On to `CN1CCN(C2Cc3ccccc3Sc3ccc(Cl)cc32)CC1` (stereo not drawn) [RS-Octoclothepin, 8-chloro-10-(4-methylpiperazino)-10,11-dihydrodibenzo[b,f]thiepin], for which the “Log Y” value at 5-HT2A receptors is on record as 8.02.
